In patent US20260139049A1 (published 2026):

Assays:
OVCA429 = target: T1, OVCA429 (human, UniProt P56747 1-220); experiment: FACS; OVCA429 cells
T1 chain: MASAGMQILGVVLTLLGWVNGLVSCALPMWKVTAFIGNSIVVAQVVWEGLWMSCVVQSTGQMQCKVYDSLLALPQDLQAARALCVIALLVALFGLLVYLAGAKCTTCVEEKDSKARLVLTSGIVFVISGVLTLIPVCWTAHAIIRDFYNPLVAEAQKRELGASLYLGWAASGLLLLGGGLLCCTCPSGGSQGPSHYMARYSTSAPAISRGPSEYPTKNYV

MKN7 = target: T2, MKN7 (human, UniProt P56747 1-220); experiment: FACS; MKN7 cells
T2 chain: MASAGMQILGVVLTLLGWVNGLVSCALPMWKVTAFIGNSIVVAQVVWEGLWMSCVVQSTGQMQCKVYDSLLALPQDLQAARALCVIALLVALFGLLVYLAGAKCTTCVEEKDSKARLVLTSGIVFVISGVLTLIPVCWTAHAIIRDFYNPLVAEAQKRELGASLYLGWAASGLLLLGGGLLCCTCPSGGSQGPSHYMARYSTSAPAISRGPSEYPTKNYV

B1: AB3-7 (antibody, V domains shown)
VH: EVQLLESGGGLVQPGGSMRLSCAASGFTFSNYWMNWVRQAPGKGLEWVAQIRLKSDNYATHYADSVKGRFTISRDDSKNTVYLQMNSLRAEDTGVYYCNDGPPSGSWGQGTLLTVSS
VL: DIQMTQSPSSLSASVGDRVTITCRISENIYSYLAWYQQKPGKAPKLLVYNAKILVEGVPSRFSGSGSGTDFTLTISSLQPEDFGTYYCQHHYTVPWTFGQGTKLEIK
OVCA429
  EC50: 21.9 µg/mL
MKN7
  EC50: 26.3 µg/mL
